By IC50 is commonly meant the concentration that inhibits the measured activity by half.

By UniProt entry, the sequences of proteins in these tests, tags left out.
UniProt P27338, whole entry: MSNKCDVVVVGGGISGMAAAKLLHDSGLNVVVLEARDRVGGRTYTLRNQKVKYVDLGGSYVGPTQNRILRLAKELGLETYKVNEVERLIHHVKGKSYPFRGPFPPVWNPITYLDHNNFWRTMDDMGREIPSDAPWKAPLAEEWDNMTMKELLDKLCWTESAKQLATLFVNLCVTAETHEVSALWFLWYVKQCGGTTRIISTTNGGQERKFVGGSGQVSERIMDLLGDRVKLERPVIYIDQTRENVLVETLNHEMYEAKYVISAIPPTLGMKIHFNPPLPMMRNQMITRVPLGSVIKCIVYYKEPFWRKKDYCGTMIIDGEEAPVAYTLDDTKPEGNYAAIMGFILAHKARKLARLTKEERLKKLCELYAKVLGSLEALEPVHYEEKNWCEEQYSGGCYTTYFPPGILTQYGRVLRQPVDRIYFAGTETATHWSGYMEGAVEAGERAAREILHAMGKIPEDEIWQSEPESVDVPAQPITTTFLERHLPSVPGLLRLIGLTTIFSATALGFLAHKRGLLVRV
UniProt P21397, whole entry: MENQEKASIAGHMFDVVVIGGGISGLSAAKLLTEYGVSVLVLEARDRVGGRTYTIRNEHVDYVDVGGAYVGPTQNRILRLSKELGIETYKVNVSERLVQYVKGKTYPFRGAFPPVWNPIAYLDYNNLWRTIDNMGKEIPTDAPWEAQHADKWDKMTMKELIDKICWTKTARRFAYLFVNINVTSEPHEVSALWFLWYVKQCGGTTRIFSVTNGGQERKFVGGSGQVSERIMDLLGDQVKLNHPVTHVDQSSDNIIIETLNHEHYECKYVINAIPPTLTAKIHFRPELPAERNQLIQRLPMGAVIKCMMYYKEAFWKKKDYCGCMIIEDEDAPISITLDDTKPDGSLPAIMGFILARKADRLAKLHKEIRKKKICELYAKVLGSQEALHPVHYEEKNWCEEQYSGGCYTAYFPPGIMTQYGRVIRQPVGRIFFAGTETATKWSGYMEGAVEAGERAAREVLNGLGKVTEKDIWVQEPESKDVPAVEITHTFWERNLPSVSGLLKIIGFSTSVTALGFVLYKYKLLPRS

Test [1] concerns the target Amine oxidase [flavin-containing] B (Homo sapiens, UniProt P27338). The experiment in a line: Inhibition of human recombinant MAOB expressed in Pichia pastoris preincubated for 15 mins measured after 30 mins by bioluminescent-coupled assay. In short, it runs like this:
(§1)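 Human recombinant KDM1A/CoREST, KDM1B, MAO A and MAO B used as enzyme sources; compounds incubated with the enzyme and results expressed as IC50.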

For test [2], the target named is Amine oxidase [flavin-containing] A (Homo sapiens, UniProt P21397). The experiment in a line: Inhibition of human recombinant MAOA expressed in Pichia pastoris preincubated for 15 mins measured after 30 mins by bioluminescent-coupled assay. In short, it runs like this:
as §1

In the case of `N[C@H]1CC[C@H](N[C@@H]2C[C@H]2c2ccccc2)CC1`, in test [1], the half-maximal inhibitory concentration (IC50) was over 100 µM. Take `N[C@@H]1C[C@H]1c1ccc(NC(=O)c2ccccc2)cc1`: the IC50 in test [2] amounted to 0.0312 µM; in test [1], 9 µM.

For the origin of these results see ChEMBL document CHEMBL3779820, “Discovery of a Novel Inhibitor of Histone Lysine-Specific Demethylase 1A (KDM1A/LSD1) as Orally Active Antitumor Agent” (J Med Chem, 2016).
